Laboratory results: patent US5677146A, “Human amyloid protein precursor homolog and kunitz-type inhibitor” (Zymogenetics, Inc., priority 1995, dated 1997)

Experiments:
[1] = tested on: Chymotrypsin; assay: Protease inhibitory activity assay, chymotrypsin; format: biochemical; settings: 1 μM inhibitor; chymotrypsin 2.5 nM; MeO-Suc-Arg-Pro-Tyr-pNA 0.6 mM; 25° C.
Protocol: (§1) Protease inhibitory profiles of the Kunitz inhibitors were determined for a variety of proteases using the chromogenic substrates listed in Table 2 and compared to the inhibitory activity shown by the Kunitz-type inhibitor domain of the amyloid protein precursor (Example 2E) and bovine aprotinin (amino acids 1-58 as described by Norris et al., ibid.; which is incorporated by reference herein in its entirety).
MeO--Suc--Arg--Pro--Tyr--pNA
(§2) Inhibition assays were performed in microtiter wells in a total volume of 300 μl in 10 mM NaCl, 50 mM Tris-HCl (pH 7.4), 0.01% TWEEN80 (Polyoxyethylenesorbitan monoleate). The reactions were incubated at 25° C. for ten minutes after which the appropriate chromogenic substrate was added to the final concentration listed in Table 2 and the final reaction was incubated for thirty minutes at 25° C. Amidolytic activity was measured at 405 nm or by fluorescence Em at 460 nm. Percent inhibition was determined relative to reactions carried out in the absence of inhibitor representing 100% activity or 0% inhibition.

[2] = tested on: GL Kallikrein (glandular kallikrein); assay: Protease inhibitory activity assay, glandular kallikrein; format: biochemical; settings: 1 μM inhibitor; GL kallikrein 1 U/ml; H-D-Val-Leu-Arg-pNA 0.6 mM; 25° C.
Protocol: as §1
H--D--Val--Leu--Arg--pNA
Abbreviations in Table 2: rec. refers to recombinant, GL kallikrein refer
to glandular kallikrein, and PL kallikrein refers to plasma kallikrein.
as §2

**Q.** For aprotinin [BPTI], which “% Inhibition, Chymotrypsin” value [1] is on record?
**A.** The value was 91.3%.

**Q.** What about the “% Inhibition, GI Kallikrein” value [2] of the same substance?
**A.** Its value is 91.4%.
